One compound from patent US5221665A, “N-substituted amides” (Boehringer Ingelheim Pharmaceuticals, Inc., priority 1991, dated 1993) can be followed below.

Sequences of proteins named here, by UniProt entry; tags and fusion partners are left off. Residues count along the entry.
UniProt P08311, 21-255 limits assumed: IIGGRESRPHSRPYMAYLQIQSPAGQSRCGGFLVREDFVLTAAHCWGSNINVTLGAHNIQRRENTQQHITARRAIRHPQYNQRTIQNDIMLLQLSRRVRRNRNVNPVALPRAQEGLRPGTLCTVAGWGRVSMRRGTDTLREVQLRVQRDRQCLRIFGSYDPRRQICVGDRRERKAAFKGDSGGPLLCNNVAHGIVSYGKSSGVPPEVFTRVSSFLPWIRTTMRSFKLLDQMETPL
UniProt P00750, 36-562 limits assumed: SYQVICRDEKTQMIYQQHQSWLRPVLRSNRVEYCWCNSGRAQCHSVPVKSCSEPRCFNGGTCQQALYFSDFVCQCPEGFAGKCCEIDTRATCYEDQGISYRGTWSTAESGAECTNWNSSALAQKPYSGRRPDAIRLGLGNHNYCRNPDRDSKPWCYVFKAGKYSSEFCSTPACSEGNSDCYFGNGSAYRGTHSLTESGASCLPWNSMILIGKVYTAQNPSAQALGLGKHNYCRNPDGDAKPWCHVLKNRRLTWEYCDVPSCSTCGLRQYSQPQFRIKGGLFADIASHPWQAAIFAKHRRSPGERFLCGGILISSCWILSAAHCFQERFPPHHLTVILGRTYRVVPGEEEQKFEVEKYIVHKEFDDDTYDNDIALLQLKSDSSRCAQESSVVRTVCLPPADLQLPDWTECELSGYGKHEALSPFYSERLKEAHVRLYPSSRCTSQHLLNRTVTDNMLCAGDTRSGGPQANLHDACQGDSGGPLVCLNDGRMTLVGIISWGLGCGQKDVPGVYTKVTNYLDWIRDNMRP
UniProt P09871, 16-688 limits assumed: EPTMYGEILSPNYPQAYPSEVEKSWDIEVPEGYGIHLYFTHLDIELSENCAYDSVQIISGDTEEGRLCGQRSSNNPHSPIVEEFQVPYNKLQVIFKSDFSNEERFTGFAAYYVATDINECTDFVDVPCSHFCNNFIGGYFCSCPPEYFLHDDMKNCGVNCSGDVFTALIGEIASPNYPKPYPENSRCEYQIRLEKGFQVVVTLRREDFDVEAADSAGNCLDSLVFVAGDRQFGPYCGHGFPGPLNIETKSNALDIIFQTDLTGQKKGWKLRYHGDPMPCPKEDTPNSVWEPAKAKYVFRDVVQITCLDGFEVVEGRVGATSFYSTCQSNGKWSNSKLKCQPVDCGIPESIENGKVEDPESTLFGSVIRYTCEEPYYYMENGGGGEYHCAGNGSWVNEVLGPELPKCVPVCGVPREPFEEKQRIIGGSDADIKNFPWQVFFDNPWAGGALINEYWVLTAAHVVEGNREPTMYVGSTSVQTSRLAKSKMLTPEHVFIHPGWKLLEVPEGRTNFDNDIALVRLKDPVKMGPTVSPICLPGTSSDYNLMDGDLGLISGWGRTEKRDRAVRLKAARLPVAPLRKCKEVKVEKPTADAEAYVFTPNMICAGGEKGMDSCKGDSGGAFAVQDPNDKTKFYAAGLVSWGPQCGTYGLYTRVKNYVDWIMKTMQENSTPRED
UniProt P00797, 67-406 limits assumed: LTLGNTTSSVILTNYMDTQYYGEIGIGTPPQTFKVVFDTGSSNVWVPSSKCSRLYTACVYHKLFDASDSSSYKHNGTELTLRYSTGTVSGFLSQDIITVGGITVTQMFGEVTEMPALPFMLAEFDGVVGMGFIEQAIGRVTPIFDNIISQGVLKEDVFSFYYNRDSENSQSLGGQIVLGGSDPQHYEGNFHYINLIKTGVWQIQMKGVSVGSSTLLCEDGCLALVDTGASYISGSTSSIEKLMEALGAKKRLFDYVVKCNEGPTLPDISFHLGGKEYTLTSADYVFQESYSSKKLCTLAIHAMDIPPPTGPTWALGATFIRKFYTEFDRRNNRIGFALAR

The target of one experiment is Human Cathepsin G (Homo sapiens, UniProt P08311). The experiment in a line: Selectivity assay: Human Cathepsin G. It counts as biochemical. As to conditions: IC50 of 5 or greater is considered inactive.
Another experiment addresses Human Cathepsin B (Homo sapiens, UniProt P07858). As to the kind of experiment: Selectivity assay: Human Cathepsin B. It counts as biochemical. As to conditions: IC50 of 5 or greater is considered inactive.
The target in a further experiment is Human Urokinase (Homo sapiens, UniProt P00749). The experiment in a line: Selectivity assay: Human Urokinase. It counts as biochemical. The note with it: IC50 of 5 or greater is considered inactive.
For experiment [1], the target named is Tissue Plasminogen Activator (Homo sapiens, UniProt P00750). As to the kind of experiment: Selectivity assay: Tissue Plasminogen Activator. The note with it: IC50 of 5 or greater is considered inactive. It counts as biochemical.
The target in the next experiment is Human C1 Esterase (Homo sapiens, UniProt P09871). The experiment in a line: Selectivity assay: Human C1 Esterase. Type of experiment: biochemical. As to conditions: IC50 of 5 or greater is considered inactive.
Another experiment deals with Total Complement. The experiment in a line: Selectivity assay: Total Complement. The note with it: IC50 of 5 or greater is considered inactive.
For another experiment, the system named is APTT. The experiment in a line: Selectivity assay: APTT. As to conditions: IC50 of 5 or greater is considered inactive.
The next experiment has as its target Human Renin (Homo sapiens, UniProt P00797). As to the kind of experiment: Selectivity assay: Human Renin. The note with it: IC50 of 5 or greater is considered inactive. It counts as biochemical.
The next experiment has as its target Human Thrombin (Homo sapiens, UniProt P00734).

As a reminder, the IC50 is the concentration at which inhibition is half-maximal. Low readings indicate greater potency in that assay, high ones weaker potency in that assay.

Consider `CC(C)C(NC(=O)CN(C(=O)[C@@H](NC(=O)c1ccc(C(=O)NS(=O)(=O)c2ccc(Cl)cc2)cc1)C(C)C)C1Cc2ccccc2C1)C(=O)C(F)(F)F` (stereo partly shown), for which the “IC50, Human Cathepsin G” value at Human Cathepsin G is more than 7 µg/mL. Further, the “IC50, Human Cathepsin B” value at Human Cathepsin B is more than 5 µg/mL. Besides, on Human Urokinase, the “IC50, Human Urokinase” value is more than 5 µg/mL. In addition, the “IC50, Tissue Plasminogen Activator” value in [1] was more than 5 µg/mL. In addition, the “IC50, Human C1 Esterase” value against Human C1 Esterase was more than 5 µg/mL. Also, in the experiment with Total Complement, the “IC50, Total Complement” value is more than 100 µg/mL. In addition, in the experiment with APTT, the “IC50, APTT” value is more than 100 µg/mL. For the same compound, the “IC50, Human Renin” value against Human Renin is more than 5 µg/mL. Moreover, the IC50 at Human Thrombin was more than 5 µg/mL; in the experiment on PT, more than 100 µg/mL.
